This experiment has as its target α1β3γ2L GABAAR (Mus musculus, UniProt P62812). Description: Whole-cell voltage-clamp electrophysiology, wild-type α1β3γ2L GABAARs expressed in HEK cells. The experiment is classed as cell-based, murine. Particulars: for mean (weighted) decay time (τw) of GABA current: 1 nM PS analogue.
Where [1] appears, read: GABA current after 20 s of 30 μM GABA (near steady state).
The mark [2] stands for this setting: potency for reducing GABA current weighted decay time constant, 30 μM GABA.
[3] abbreviates: read-out: Decay inhibition (IC50), potency for reducing GABA current weighted decay time constant, 30 μM GABA.
The mark [4] stands for this setting: read-out: Steady-state inhibition (IC50), GABA current after 20 s of 30 μM GABA (near steady state).

Protein sequences, listed by entry. Tags and fused reporters are not part of them. Residues count along the entry.
UniProt P62812, 28-455 limits assumed: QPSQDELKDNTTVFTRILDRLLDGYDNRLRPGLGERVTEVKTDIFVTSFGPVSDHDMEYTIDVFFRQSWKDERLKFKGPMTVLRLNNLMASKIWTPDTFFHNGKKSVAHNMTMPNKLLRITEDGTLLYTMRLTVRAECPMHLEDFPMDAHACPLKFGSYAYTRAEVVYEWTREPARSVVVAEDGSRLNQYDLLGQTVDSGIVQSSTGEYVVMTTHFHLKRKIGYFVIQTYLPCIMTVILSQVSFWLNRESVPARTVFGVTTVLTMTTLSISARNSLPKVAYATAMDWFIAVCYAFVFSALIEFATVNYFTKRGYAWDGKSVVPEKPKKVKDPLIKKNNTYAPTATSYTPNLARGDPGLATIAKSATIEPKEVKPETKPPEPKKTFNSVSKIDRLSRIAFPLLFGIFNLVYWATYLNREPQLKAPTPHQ
UniProt P63080, 26-473 partner limits assumed: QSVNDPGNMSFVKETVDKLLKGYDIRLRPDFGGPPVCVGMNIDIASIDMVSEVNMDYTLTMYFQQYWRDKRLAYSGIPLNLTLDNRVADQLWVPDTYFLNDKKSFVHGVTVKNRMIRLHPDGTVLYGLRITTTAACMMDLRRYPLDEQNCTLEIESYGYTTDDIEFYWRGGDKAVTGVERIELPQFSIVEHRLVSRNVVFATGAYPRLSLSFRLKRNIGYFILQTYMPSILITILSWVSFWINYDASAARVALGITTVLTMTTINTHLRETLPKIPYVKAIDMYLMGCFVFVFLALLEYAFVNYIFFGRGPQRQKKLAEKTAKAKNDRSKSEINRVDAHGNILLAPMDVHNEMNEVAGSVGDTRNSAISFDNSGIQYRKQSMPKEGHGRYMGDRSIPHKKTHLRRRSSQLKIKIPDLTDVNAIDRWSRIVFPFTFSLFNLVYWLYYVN
UniProt P22723, 39-474 partner limits assumed: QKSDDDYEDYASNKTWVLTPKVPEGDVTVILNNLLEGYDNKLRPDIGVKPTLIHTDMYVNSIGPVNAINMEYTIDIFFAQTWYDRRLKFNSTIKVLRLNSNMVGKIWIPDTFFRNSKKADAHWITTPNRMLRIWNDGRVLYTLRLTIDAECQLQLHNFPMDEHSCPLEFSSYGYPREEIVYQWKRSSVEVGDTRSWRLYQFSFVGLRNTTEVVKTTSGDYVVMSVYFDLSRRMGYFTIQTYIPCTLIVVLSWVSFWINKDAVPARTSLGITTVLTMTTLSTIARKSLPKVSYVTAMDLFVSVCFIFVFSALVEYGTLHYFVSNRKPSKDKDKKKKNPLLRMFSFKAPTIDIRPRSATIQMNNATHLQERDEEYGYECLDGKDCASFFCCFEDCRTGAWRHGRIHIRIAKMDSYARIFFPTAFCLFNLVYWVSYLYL

Molecules are shown by their SMILES. Where two headings read alike, the source gives them in different places.

For the molecule `C[C@]12CC[C@H]3[C@@H](CC=C4C[C@@H](OS(=O)(=O)O)CC[C@@]43C)[C@@H]1CC[C@@H]2C(=O)Cn1cnc2ccccc21`, the “mean (weighted) decay time (τw) of GABA current” value (30 μM GABA) is 3.8 ± 0.2 s. For the same molecule, the “Steady-state inhibition (pIC50)” value under setting [1] is 6.391 ± 0.038. Further, the “Peak inhibition (pIC50)” value (peak current evoked by 30 μM GABA, analogue pre-applied 10–12 s and co-applied) was found to be 4.327 ± 0.128. The “Decay inhibition (pIC50)” value under setting [2] is 5.142 ± 0.087. The half-inhibitory concentration (IC50) (as a rule, the concentration that inhibits the measured activity by half) reads like this: under setting [3], 7.2 µM; (read-out: Peak inhibition (IC50), peak current evoked by 30 μM GABA, analogue pre-applied 10–12 s and co-applied) 47 µM; under setting [4], 0.41 µM.

Consider `C[C@]12CC[C@H]3[C@@H](CC=C4C[C@@H](OS(=O)(=O)O)CC[C@@]43C)[C@@H]1CC[C@@H]2C(=O)CN1CCCCC1`, for which, where the note is “30 μM GABA”, the “mean (weighted) decay time (τw) of GABA current” value came to 3.7 ± 0.3 s. Also, the “Steady-state inhibition (pIC50)” value under setting [1] came out at 5.265 ± 0.085. In addition, the “Decay inhibition (pIC50)” value under setting [2] worked out at 3.663 ± 0.186. The IC50 runs as follows: under setting [3], 217 µM; (read-out: Peak inhibition (IC50), peak current evoked by 30 μM GABA, estimated by graphical extrapolation or not measurable) more than 2000 µM; under setting [4], 5.4 µM.

Values taken from publication PMC10952582, “Pregnenolone sulfate analogues differentially modulate GABAA receptor closed/desensitised states” (British Journal of Pharmacology, 2023).
